In general, Ki refers to the dissociation constant of the complex between target and ligand, obtained from inhibition or displacement. Read a high Ki as weaker binding.

The chains behind the UniProt entries cited, without tags or fusion partners.
UniProt Q01827, whole entry: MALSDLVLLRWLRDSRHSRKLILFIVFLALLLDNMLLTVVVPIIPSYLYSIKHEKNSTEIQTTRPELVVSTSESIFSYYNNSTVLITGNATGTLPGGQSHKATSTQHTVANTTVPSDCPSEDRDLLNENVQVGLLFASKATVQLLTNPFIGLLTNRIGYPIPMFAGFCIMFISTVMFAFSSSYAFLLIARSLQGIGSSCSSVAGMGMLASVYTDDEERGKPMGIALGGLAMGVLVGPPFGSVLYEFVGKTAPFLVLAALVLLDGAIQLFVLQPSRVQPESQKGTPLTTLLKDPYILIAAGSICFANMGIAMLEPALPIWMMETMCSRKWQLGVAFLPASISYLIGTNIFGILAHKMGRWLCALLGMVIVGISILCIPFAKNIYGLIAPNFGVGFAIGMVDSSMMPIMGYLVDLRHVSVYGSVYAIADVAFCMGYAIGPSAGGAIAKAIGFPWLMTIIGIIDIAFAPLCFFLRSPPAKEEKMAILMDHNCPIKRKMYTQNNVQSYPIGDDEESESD

In ChEMBL document CHEMBL1770112 (Eur J Med Chem, 2011) one finds Ki data, which are given here for one compound.

This assay addresses Synaptic vesicular amine transporter (Rattus norvegicus, UniProt Q01827). Briefly: Displacement of [3H]DHTBZ from Sprague-Dawley rat striatum VMAT2 after 1 hr by liquid scintillation counting.

Turning to `COc1cc2c(cc1OC)[C@H]1CC(=O)[C@H](CC(C)C)CN1CC2`, the Ki came out at 4.47 nM.
